Assay results taken from BindingDB's records for doi:10.1172/JCI119225 (Cedars-Sinai Research Institute, 1997).

Chains of the proteins cited; added tags and fusions are not shown. Lines headed by an entry give the natural chain unless they say otherwise; changes in a name come on top.
UniProt P31391: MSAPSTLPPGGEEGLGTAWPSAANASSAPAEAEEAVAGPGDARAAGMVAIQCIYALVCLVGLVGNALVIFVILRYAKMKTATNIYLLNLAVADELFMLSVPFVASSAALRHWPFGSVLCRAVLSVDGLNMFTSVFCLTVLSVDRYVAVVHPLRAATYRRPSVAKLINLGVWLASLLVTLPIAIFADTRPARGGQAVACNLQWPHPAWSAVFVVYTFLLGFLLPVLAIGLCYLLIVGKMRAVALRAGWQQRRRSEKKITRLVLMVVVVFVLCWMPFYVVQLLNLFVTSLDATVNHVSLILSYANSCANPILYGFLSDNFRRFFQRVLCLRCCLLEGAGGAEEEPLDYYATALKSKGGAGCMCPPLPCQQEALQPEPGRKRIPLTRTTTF
UniProt P30874: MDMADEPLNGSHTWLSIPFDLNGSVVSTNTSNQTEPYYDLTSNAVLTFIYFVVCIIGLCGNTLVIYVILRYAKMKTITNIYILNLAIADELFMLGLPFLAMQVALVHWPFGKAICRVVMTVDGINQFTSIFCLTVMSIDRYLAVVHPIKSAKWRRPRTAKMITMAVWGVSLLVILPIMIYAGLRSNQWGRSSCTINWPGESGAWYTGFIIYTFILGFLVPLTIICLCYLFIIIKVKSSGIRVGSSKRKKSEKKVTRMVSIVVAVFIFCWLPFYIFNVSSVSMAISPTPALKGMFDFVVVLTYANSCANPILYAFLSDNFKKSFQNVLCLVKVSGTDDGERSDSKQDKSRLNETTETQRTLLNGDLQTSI

Experiments:
[1] = target: Somatostatin receptor type 4 (Homo sapiens, UniProt P31391)
[2] = target: Somatostatin receptor type 2 (Homo sapiens, UniProt P30874)

Row | Compound | IC50 [1] | IC50 [2]
1 | C[C@@H](O)[C@@H]1NC(=O)[C@H](CCCCN)NC(=O)[C@@H](Cc2c[nH]c3ccccc23)NC(=O)[C@H](Cc2ccccc2)NC(=O)[C@H](Cc2ccccc2)NC(=O)[C@H](N)CSSC[C@H](C(N)=O)NC(=O)[C@H](Cc2ccccc2)NC1=O | 16.3 nM | –
2 | CC[C@@H]1NC(=O)[C@H](CCCCN)NC(=O)[C@@H](Cc2c[nH]c3ccccc23)NC(=O)[C@H](Cc2ccc(O)cc2)NC(=O)[C@@H](NC(=O)[C@@H](Cc2ccccc2)NS(=O)(=O)CCN2CCN(CCO)CC2)CSSC[C@@H](C(=O)N[C@H](C(N)=O)[C@@H](C)O)NC1=O [BIM-23197] | 1000 nM | 0.19 nM
